Measurements reported in ChEMBL document CHEMBL6103567, “A novel pyridine-2-one AMPK inhibitor: Discovery, mechanism, and in vivo evaluation in a hypoxic pulmonary arterial hypertension rat model” (Eur J Med Chem, 2025).
Activity calls are given as the source filed them.

What was measured:
PASMC [1] = test: Inhibition of autophagy in human PASMC cells assessed as increase in p62 level at 5 uM incubated for 24 hrs under hypoxic condition by Western blotting analysis; assay type: functional, cell-based
Rattus norvegicus [2] = test: Antifibrotic activity against hypoxia-induced Pulmonary Arterial Hypertension Sprague-Dawley rat model assessed as change in alpha-SMA level in lung at 30 mg/kg, po; assay type: functional, organism-based
Rattus norvegicus [3] = test: Antifibrotic activity against hypoxia-induced Pulmonary Arterial Hypertension Sprague-Dawley rat model assessed as change in fibronectin-1 level in lung at 30 mg/kg, po; assay type: functional, organism-based
Rattus norvegicus [4] = test: Antifibrotic activity against hypoxia-induced Pulmonary Arterial Hypertension Sprague-Dawley rat model assessed as change in collagen-1 level in lung at 30 mg/kg, po; assay type: functional, organism-based
PASMC [5] = test: Inhibition of autophagy in human PASMC cells assessed as increase in LC3B-II/I level at 5 uM incubated for 24 hrs under hypoxic condition by Western blotting analysis; assay type: functional, cell-based
Rattus norvegicus [6] = test: Antifibrotic activity against hypoxia-induced Pulmonary Arterial Hypertension Sprague-Dawley rat model assessed as change in smad3 level in lung at 30 mg/kg, po; assay type: functional, organism-based
PASMC [7] = test: Inhibition of autophagy in human PASMC cells at 5 uM incubated for 12 hrs under hypoxic condition by MDC staining based fluorescence microscopic assay; assay type: functional, cell-based

c1cc(-c2cnn3cc(-c4ccc(OCCN5CCCCC5)cc4)cnc23)ccn1 [DORSOMORPHIN]
active: inhibition (PASMC [1]) | Activity (Rattus norvegicus [2]) | Activity (Rattus norvegicus [3]) | Activity (Rattus norvegicus [4]) | inhibition (PASMC [5]) | Activity (Rattus norvegicus [6]) | inhibition (PASMC [7])
